{"source": "patent US20200352917A1", "about": "“MEDICATED SPRAY FOR TREATMENT OF SUBSTANCE ABUSE, OVERDOSE, ADDICTION AND IMPULSE CONTROL DISORDERS” (published 2020)", "origin": "cited, not measured here", "conditions": "water and aqueous alcohol, in the form of a salt such as a hydrochloride"}
{"smiles": "C=CCN1CC[C@]23c4c5ccc(O)c4O[C@H]2C(=O)CC[C@@]3(O)[C@H]1C5", "values": [{"measurement": "solubility", "value": "freely soluble"}]}
